# Source: publication PMC4556431 (Angewandte Chemie (International ed. in English), 2015)
# The chains behind the UniProt entries cited, without tags or fusion partners. Residues count along the entry.
# UniProt A0A0H2ZD27, 25-319 limits assumed: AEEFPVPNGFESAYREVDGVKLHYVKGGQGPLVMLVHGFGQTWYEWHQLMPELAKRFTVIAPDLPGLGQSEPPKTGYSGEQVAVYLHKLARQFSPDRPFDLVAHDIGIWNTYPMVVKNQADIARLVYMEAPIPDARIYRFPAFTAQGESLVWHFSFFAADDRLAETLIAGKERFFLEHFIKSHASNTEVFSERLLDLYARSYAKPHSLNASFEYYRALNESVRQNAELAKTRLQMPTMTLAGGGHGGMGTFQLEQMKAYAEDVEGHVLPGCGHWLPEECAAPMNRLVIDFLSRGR
# Molecular target: Cif (CFTR inhibitory factor) (Pseudomonas aeruginosa, UniProt A0A0H2ZD27)
# Settings: substrate CMNGC; apparently not competitive
structure (smiles),measurement,value
"O=C(O)Cc1cc(I)c(Oc2ccc(O)c(I)c2)c(I)c1 [compound 3, tiratricol]",Ki,Kinetic determination of tiratricol equilibrium inhibition constant (Ki) of Cif
